Activity calls are given as the source filed them.
Legend:
Rattus norvegicus [1] = species on record: Rattus norvegicus; settings: Sprague-Dawley, dose 3-30 mg/kg, route po, time 3.0 hrs
Rattus norvegicus [2] = species on record: Rattus norvegicus; settings: Sprague-Dawley, dose 3-30 mg/kg, route po, time 1.0 hrs
Rattus norvegicus [3] = species on record: Rattus norvegicus; settings: Sprague-Dawley, dose 10.0 mg/kg/day, route po, time 2.0 day
Rattus norvegicus [4] = species on record: Rattus norvegicus; settings: Sprague-Dawley, dose 10.0 mg/kg/day, route po, time 10.0 day
Rattus norvegicus [5] = species on record: Rattus norvegicus; settings: Sprague-Dawley, dose 10.0 mg/kg/day, route po, time 14.0 day
Rattus norvegicus [6] = species on record: Rattus norvegicus; settings: Sprague-Dawley, dose 30.0 mg/kg/day, route po, time 14.0 day
Canis familiaris [7] = species on record: Canis familiaris; settings: Canis lupus familiaris; Beagle; dose 6-150 mg/kg/day, route po, time 7.0 day
Canis familiaris [8] = species on record: Canis familiaris; settings: Canis lupus familiaris; Beagle; dose 150.0 mg/kg/day, route po, time 1.0 day

Measured: inhibition

N#Cc1cccc(-c2ccc3ncc(-c4cc(F)cc(F)c4)c(N4CCC(N)CC4)c3c2)c1O [PALTUSOTINE]
active: Rattus norvegicus [1] Dose-Dependent Effect | Rattus norvegicus [2] Dose-Dependent Effect | Rattus norvegicus [3] | Rattus norvegicus [4] | Rattus norvegicus [5] | Rattus norvegicus [6] | Canis familiaris [7] | Canis familiaris [8]

— ChEMBL document CHEMBL5223164 (ACS Med Chem Lett, 2023)
